Only some compounds are listed: those with a hit (about 13% of all), similar ones and a draw of the others.
G9a inh: blocks human histone lysine methyltransferase G9a | G9a H3K9 monomethylation, AlphaScreen, 2 h | Potency, µM (highest dose often 102 µM), actives largely listed as inhibitors | 350,000 compounds, 8.8% hits; also: nearly all actives have a fitted effect of over 75% in size
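AlphaScreen detection with an anti-monomethyl H3K9 antibody quantified product after a 2 h room-temperature reaction containing 500 nM biotinylated H3K9 peptide, 20 µM SAM and 20 nM enzyme, which had been preincubated 15 min with compound.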
Sfp PPTase inh: Sfp phosphopantetheinyl transferase inhibition. Potency, µM, most hits filed as inhibitors. Q9F4F7. Biochemical Sfp PPTase activity, qHTS. 310,000 compounds, 3.5% hits;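 also: the enzyme is Sfp with the accession as filed and its product quenches rhodamine fluorescence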
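After 15 min at room temperature with compound, 15 nM Sfp received 5 uM rhodamine-CoA plus 12.5 uM BHQ-2-ybbR (50 mM Hepes pH 7.6, 10 mM MgCl2). Rate came from the fluorescence difference over 30 min, ex 525/em 598 nm.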
JMJD2E inh: JMJD2E (human) inhibition; 230,000 compounds, 1.6% hits; B2RXH2; Potency, µM (titrated, usually from 57.1 µM), most hits filed as inhibitors; AID 2147; JMJD2E catalytic domain, FDH-coupled NADH fluorescence (FDH is formaldehyde dehydrogenase); also: nearly all actives have a fitted effect of over 50% in size
Lamin A splicing: LMNA splicing modulation; HeLa LMNA splicing GFP/RFP minigene ratio, 48 h; AID 1487; 200,000 compounds, 0.01% hits; Potency, µM (top dose mostly 46.1 µM), most hits filed as inhibitors; active = well fitted inhibition curve with a large enough effect in the signal ratio, with a control signal flat, not every such curve was filed as active; inconclusive = small, poorly fitted or top-dose-only effect, or effect the other way, or a change in a side signal; the % refers to the signal ratio
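S3 HeLa cells stably expressing lamin A-EGFP splicing minigene plus DsRed2, 600 cells/well, 48 h compound exposure at 37C. Laser-scanning cytometry; analysed as GFP (500-530 nm)/RFP (575-640 nm) total intensity ratio; 0.5% DMSO vehicle.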
ALDH1A1 inh: blocks purified human ALDH1A1 activity. P00352. AID 1030. Purified ALDH1A1, NADH fluorescence, propionaldehyde substrate. 220,000 compounds, 7.3% hits. Potency, µM (doses to about 75.3 µM), most hits filed as inhibitors; active = well fitted inhibition curve with a large enough effect, not every such curve was filed as active; inconclusive = small, poorly fitted or top-dose-only effect, or another doubt; inactive = no such curve, though single readings can be large or run the other way
miR-21 FLuc: miR-21 reporter, rising signal | HeLa miR-21 FLuc reporter, luciferase, 48 h | Potency, µM (top dose mostly 38.3 µM) | 340,000 tested, under 10 active | AID 2288; active = well fitted rising curve with a large enough effect; inconclusive = small, poorly fitted or top-dose-only effect; inactive = no such curve, though single readings can be large or run the other way;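 note: miR-21 action dims this reporter so a rising signal means less miR-21 action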
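HeLa cells endogenously expressing miR-21, stably carrying CMV-driven firefly luciferase with a downstream miR-21 binding site, 2000 cells/well. Titrations up to approximately 40 uM, 48 hours; luciferase luminescence read.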
Sfp PPTase conf: Sfp phosphopantetheinyl transferase inhibition, confirmation; AID 2701; Sfp PPTase enzymatic assay, qHTS titration; shares compounds with Sfp PPTase inh; Potency, µM (top dose mostly 114 µM), actives largely listed as inhibitors; 380 compounds, 79% hits
Sfp gel assay: Inhibits Bacillus subtilis Sfp phosphopantetheinyl transferase; Potency, µM, actives largely listed as inhibitors; 210 compounds, 20% hits; AID 2707; shares compounds with Sfp PPTase inh; purified Sfp, gel-based phosphopantetheinylation read-out;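 active = potency below 100 µM; inconclusive = dose-dependent response but potency above 100 µM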;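 also: potency is an IC50 for inhibitors of Sfp transfer activity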
Hits are given with their value; ! = not active in a repeat; [ ] = another dose, or the depositor's remark. Unless noted, calls follow the shape of the dose curve; as a rule, active = well fitted curve in the direction sought with a large enough effect; inconclusive = small, poorly fitted or top-dose-only effect, or another doubt; inactive = no such curve, though single readings can be large; an effect the other way counts as inactive or inconclusive.

What do the screens show for `CCC1(c2ccccc2)NC(=O)N(CC(=O)N2CC(=O)Nc3ccccc32)C1=O` (stereo not drawn)?
G9a inh: inactive[2.33 µM]

How did COC(=O)c1[nH]c2ccccc2c1NC(=O)Oc1ccccc1 do in these assays?
G9a inh: 10µM; Sfp PPTase inh: 11.2µM; JMJD2E inh: inconclusive; Lamin A splicing: inactive; ALDH1A1 inh: inconclusive; miR-21 FLuc: inactive; Sfp PPTase conf: inconclusive

What do the screens show for `NC(=O)N1c2ccccc2C=Cc2ccccc21`?
G9a inh: inactive; Sfp PPTase inh: inactive; JMJD2E inh: inactive; Lamin A splicing: inconclusive; ALDH1A1 inh: inactive; miR-21 FLuc: inactive

How did NC(=O)N1c2ccccc2CC(=O)c2ccccc21 do in these assays?
G9a inh: inactive[2.33 µM]; Sfp PPTase inh: 35.5µM!; JMJD2E inh: inconclusive; Lamin A splicing: inconclusive; ALDH1A1 inh: inactive; miR-21 FLuc: inactive; Sfp PPTase conf: 46.9µM; Sfp gel assay: inactive

What do the screens show for `CN1CCC(=C2c3ccccc3C=Cc3ccccc32)CC1`?
G9a inh: inactive; Sfp PPTase inh: 44.7µM!; JMJD2E inh: inactive; Lamin A splicing: inconclusive; ALDH1A1 inh: inactive; miR-21 FLuc: inactive; Sfp PPTase conf: 83.5µM; Sfp gel assay: inactive

What do the screens show for `Cc1ccc(Nc2nc(-c3sc(NC(=O)c4ccco4)nc3C)cs2)cc1`?
G9a inh: inconclusive; Sfp PPTase inh: 15.8µM; JMJD2E inh: inactive; Lamin A splicing: inactive; ALDH1A1 inh: inconclusive; miR-21 FLuc: inactive; Sfp PPTase conf: 52.7µM; Sfp gel assay: inconclusive

How did Cc1ccc(C2(C(F)(F)F)NC(=O)N3CCCN=C3S2)cc1 (stereo not drawn) do in these assays?
G9a inh: inactive; Sfp PPTase inh: inactive; JMJD2E inh: inactive; Lamin A splicing: inactive; ALDH1A1 inh: inactive; miR-21 FLuc: inactive

Results for O=C1NC(c2ccccc2)(C(F)(F)F)SC2=CCCCCN12 (stereo not drawn) ?
G9a inh: inconclusive; Sfp PPTase inh: 20µM; JMJD2E inh: inconclusive; Lamin A splicing: inactive; ALDH1A1 inh: inconclusive; miR-21 FLuc: inactive; Sfp PPTase conf: 46.9µM; Sfp gel assay: inactive

Results for CON(C)S(=O)(=O)NC(=O)C1=C(N2CCCC2)COC1=O ?
G9a inh: inactive[0.501 µM]

Results for Cc1cc(N/N=C/c2cccc(Cl)c2)nc(NCc2ccccc2)n1 ?
G9a inh: inactive; Sfp PPTase inh: inconclusive; JMJD2E inh: inactive; Lamin A splicing: inconclusive; ALDH1A1 inh: inactive; miR-21 FLuc: inactive

What do the screens show for `Cc1cc(Nc2cccc(Cl)c2)nc(NCc2ccccc2)n1`?
G9a inh: inactive; Sfp PPTase inh: 15.8µM; JMJD2E inh: inconclusive; Lamin A splicing: inconclusive; ALDH1A1 inh: inactive; miR-21 FLuc: inconclusive; Sfp PPTase conf: 59.1µM; Sfp gel assay: inconclusive

How did CN1CCC(NC(=O)Nc2ccc(Br)cc2)CC1 do in these assays?
Sfp PPTase inh: inactive; JMJD2E inh: inactive; miR-21 FLuc: inactive

What do the screens show for `CN1CCN(C(=S)C(=O)Nc2ccc(Br)cc2)CC1`?
G9a inh: 2.51µM; Sfp PPTase inh: 1.26µM; JMJD2E inh: inconclusive; Lamin A splicing: inconclusive; ALDH1A1 inh: 7.94µM; miR-21 FLuc: inactive; Sfp PPTase conf: 6.63µM

What do the screens show for `Cc1cc(=O)n(CC(=O)NC(C)c2ccccc2)c2c1c(C)nn2C` (stereo not drawn)?
G9a inh: inactive; Lamin A splicing: inactive; miR-21 FLuc: inactive

How did N[C@@H](CO)C(=O)NNCc1ccc(O)c(O)c1O do in these assays?
G9a inh: inconclusive; Sfp PPTase inh: 28.2µM; JMJD2E inh: 7.94µM; Lamin A splicing: inactive; ALDH1A1 inh: inconclusive; Sfp PPTase conf: inconclusive; Sfp gel assay: 18.5µM

Results for COC(=O)c1ccc2ncccc2c1 ?
G9a inh: inactive[12.7 µM]; Sfp PPTase inh: inactive; JMJD2E inh: inactive; Lamin A splicing: inactive; ALDH1A1 inh: inactive; miR-21 FLuc: inactive

How did COC(=O)c1cc(=O)c(O)c2c(O)c(O)ccc2c1 do in these assays?
Sfp PPTase inh: 31.6µM; JMJD2E inh: 8.91µM; Lamin A splicing: inconclusive; ALDH1A1 inh: 11.2µM; Sfp PPTase conf: 9.37µM; Sfp gel assay: inactive

What do the screens show for `O=C(O)Cc1sc(Nc2ccc(Cl)cc2)nc1-c1cccs1`?
G9a inh: inconclusive; Sfp PPTase inh: 1.26µM; JMJD2E inh: inconclusive; Lamin A splicing: inactive; ALDH1A1 inh: 1µM; miR-21 FLuc: inactive; Sfp PPTase conf: 59.1µM

How did Clc1ccc(Nc2c(-c3cccs3)nc3ccc(Cl)cn23)cc1 do in these assays?
G9a inh: inactive; miR-21 FLuc: inactive

Results for Cc1ccc(C(=O)Nc2sc3c(c2C(=O)O)CCCC3)o1 ?
G9a inh: inconclusive; Sfp PPTase inh: inactive; miR-21 FLuc: inactive

Results for COC(=O)c1c(NC(=O)c2ccc(C)o2)sc2c1CCCCC2 ?
G9a inh: inactive; Sfp PPTase inh: 14.1µM; JMJD2E inh: inconclusive; Lamin A splicing: inactive; ALDH1A1 inh: inconclusive; miR-21 FLuc: inactive; Sfp PPTase conf: 37.3µM; Sfp gel assay: inactive

Results for COc1ccc(CNS(=O)(=O)c2cnc(N)nc2)cc1 ?
G9a inh: inactive; Lamin A splicing: inconclusive; miR-21 FLuc: inactive

How did O=C(COC(=O)CCNS(=O)(=O)c1ccccc1)NC(=O)c1ccccc1 do in these assays?
G9a inh: inactive[2.33 µM]

What do the screens show for `COc1ccccc1N1CCN(C(=O)c2oc3cc(C)cc(C)c3c2C)CC1`?
G9a inh: inactive; Sfp PPTase inh: 2µM; JMJD2E inh: inactive; Lamin A splicing: inconclusive; ALDH1A1 inh: inactive; miR-21 FLuc: inactive; Sfp PPTase conf: 46.9µM; Sfp gel assay: inactive

What do the screens show for `c1ccc2c(c1)[nH]c1nc(SCCN3CCOCC3)nnc12`?
G9a inh: 3.55µM; Sfp PPTase inh: 4.47µM; JMJD2E inh: inactive; Lamin A splicing: inactive; ALDH1A1 inh: inconclusive; miR-21 FLuc: inactive; Sfp PPTase conf: 9.37µM

What do the screens show for `O=c1cc(N2CCN(c3ccc(F)cc3)CC2)[nH]c(=O)n1-c1ccc(Br)cc1`?
G9a inh: inactive; Lamin A splicing: inactive; miR-21 FLuc: inactive

How did COc1cc(NC(=O)CC(C)n2ccnc2)cc(OC)c1 (stereo not drawn) do in these assays?
G9a inh: inactive; Sfp PPTase inh: inactive; miR-21 FLuc: inactive

How did COC(=O)C(CC(=O)c1ccc(Br)cc1)n1ccnc1 (stereo not drawn) do in these assays?
G9a inh: inconclusive; Sfp PPTase inh: 1.58µM; JMJD2E inh: inactive; Lamin A splicing: inconclusive; ALDH1A1 inh: 0.447µM; miR-21 FLuc: inactive; Sfp PPTase conf: 8.35µM

How did CCOC(=O)c1sc(NC(=O)CSc2nnnn2-c2ccc(C)cc2)c(C(=O)OCC)c1C do in these assays?
G9a inh: inactive; Sfp PPTase inh: inactive; JMJD2E inh: inactive; Lamin A splicing: inactive; ALDH1A1 inh: inactive; miR-21 FLuc: inactive

Screening results as filed in PubChem BioAssay.
